Source: US20050054673A1, “Combination of phenylcarboxylic acid amides with beta-adrenoreceptor blockers and their use for the treatment of atrial arrhythmias” (Aventis Pharma Deutschland GmbH, priority 2003, published 2005)

Protein sequences, listed by entry. Tags and fused reporters are not part of them.
UniProt P22460, whole entry: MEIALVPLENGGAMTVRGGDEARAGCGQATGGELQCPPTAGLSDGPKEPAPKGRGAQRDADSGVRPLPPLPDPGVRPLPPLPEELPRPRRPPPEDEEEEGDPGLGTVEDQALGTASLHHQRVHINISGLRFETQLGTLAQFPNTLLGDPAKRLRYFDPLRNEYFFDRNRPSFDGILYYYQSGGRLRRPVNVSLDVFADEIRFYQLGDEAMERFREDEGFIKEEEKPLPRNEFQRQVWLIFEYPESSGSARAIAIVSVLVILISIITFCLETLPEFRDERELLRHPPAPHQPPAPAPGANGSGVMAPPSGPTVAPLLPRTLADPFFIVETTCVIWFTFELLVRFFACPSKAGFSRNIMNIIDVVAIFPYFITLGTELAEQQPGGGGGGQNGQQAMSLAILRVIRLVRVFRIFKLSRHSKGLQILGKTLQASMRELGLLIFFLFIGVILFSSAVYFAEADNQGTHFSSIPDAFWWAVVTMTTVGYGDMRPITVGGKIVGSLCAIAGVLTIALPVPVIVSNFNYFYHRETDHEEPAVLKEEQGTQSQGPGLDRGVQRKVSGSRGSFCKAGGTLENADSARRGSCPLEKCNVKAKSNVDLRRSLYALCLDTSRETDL

Each compound was assayed against T1, Kv1.5 channels from humans (Homo sapiens, UniProt P22460) (assay: Activity on the Kv1.5 channel, two microelectrode voltage clamp in Xenopus oocytes). Details: human Kv1.5 expressed in Xenopus oocytes, room temperature, Hill equation.
T1 construct: expressed in transfected cells; host or cells: Xenopus laevis oocytes injected with in vitro synthesized RNA
Format: cell-based
Method: Determination of the activity on the Kv1.5 channel
These experiments were carried out at room temperature.
In the case of `COc1ccc(CC(=O)NCc2ccccc2-c2ccccc2C(=O)NCCc2cccnc2)cc1` [Example 1, 2′-{[2-(4-Methoxyphenyl)acetylamino]methyl}biphenyl-2-carboxylic acid (2-pyridin-3-ylethyl)amide], the IC50 is reported as 4700 nM. `COc1ccc(CC(=O)NCc2ccccc2-c2ccccc2C(=O)NCc2ccc(F)cc2F)cc1` [Example 3, 2′-{[2-(4-Methoxyphenyl)acetylamino]methyl}biphenyl-2-carboxylic acid 2,4-difluorobenzylamide] was tested, and the IC50 was 1400 nM. Compound `CC[C@H](NC(=O)c1cc(F)ccc1NS(=O)(=O)c1cccc2cccnc12)c1ccccc1` [Example 7, (S)-5-Fluoro-2-(quinoline-8-sulfonylamino)-N-(1-phenyl-propyl)benzamide] has an IC50 of 1100 nM. `CCCCS(=O)(=O)Nc1ccc(C)cc1C(=O)NC(c1cccnc1)C1CC1` (stereo not shown) [Example 6, 2-(Butyl-1-sulfonylamino)-N-(cyclopropylpyridin-3-ylmethyl)-5-methylbenzamide] gave an IC50 of 1000 nM.
